Results published in patent US9586925B2 (priority 2013, dated 2017).

By UniProt entry, the sequences of proteins in these tests, tags left out. Residues count along the entry.
UniProt P06276, 29-602 limits assumed: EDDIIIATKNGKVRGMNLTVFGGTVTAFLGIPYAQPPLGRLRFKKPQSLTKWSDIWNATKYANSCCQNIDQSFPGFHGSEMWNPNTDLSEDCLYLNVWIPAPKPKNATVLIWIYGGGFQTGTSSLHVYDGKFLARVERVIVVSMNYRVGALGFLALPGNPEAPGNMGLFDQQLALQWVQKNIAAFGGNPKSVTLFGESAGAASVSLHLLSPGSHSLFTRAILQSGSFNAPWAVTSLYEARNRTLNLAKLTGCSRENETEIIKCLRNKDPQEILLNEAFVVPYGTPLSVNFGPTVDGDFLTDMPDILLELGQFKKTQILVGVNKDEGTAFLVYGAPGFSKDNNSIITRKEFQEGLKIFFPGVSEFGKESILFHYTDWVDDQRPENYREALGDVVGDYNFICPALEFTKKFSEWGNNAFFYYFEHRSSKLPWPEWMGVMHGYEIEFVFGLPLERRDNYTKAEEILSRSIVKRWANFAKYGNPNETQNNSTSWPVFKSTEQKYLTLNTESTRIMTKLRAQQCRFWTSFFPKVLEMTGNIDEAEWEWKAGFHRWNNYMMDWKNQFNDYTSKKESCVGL

How the values were obtained:
[1] = biological target: BCHE (Homo sapiens (Human), UniProt P06276); details: background statement; cited from earlier work
[2] = biological target: human recombinant butyrylcholinesterase (Homo sapiens (Human), UniProt P06276); type: biochemical; details: read-out: BCHE Inhibitory Activity IC50

For `CCN(C)C(=O)Oc1cccc([C@H](C)N(C)C)c1` [Rivastigmine, reference compound], the IC50 [1] is given as > 10 µM and the IC50 [2] is given as 11 µM.
